B1: KCTD1 (full-length, residues 1-257) (natural protein, human, UniProt Q719H9 1-257, looked up)
chain: MSRPLITRSPASPLNNQGIPTPAQLTKSNAPVHIDVGGHMYTSSLATLTKYPESRIGRLFDGTEPIVLDSLKQHYFIDRDGQMFRYILNFLRTSKLLIPDDFKDYTLLYEEAKYFQLQPMLLEMERWKQDRETGRFSRPCECLVVRVAPDLGERITLSGDKSLIEEVFPEIGDVMCNSVNAGWNHDSTHVIRFPLNGYCHLNSVQVLERLQQRGFEIVGSCGGGVDSSQFSEYVLRRELRRTPRVPSVIRIKQEPLD
notes: KCTD1, full-length protein, residues 1-257; Gene bought from Sigma Aldrich, cloned into pETM11; also called wild-type KCTD1; Potassium Channel Tetramerization Domain protein 1; source: E. coli BL21(DE3), purified (His-trap, TEV digestion, Superdex 200); not shown: polyHis, N-terminal, cleaved
B2: N-terminal domain of the transcription factor AP-2α (AP-2α^NTD, residues 1-165) (domain or fragment, UniProt P05549 1-165, looked up)
chain: MLWKLTDNIKYEDCEDRHDGTSNGTARLPQLGTVGQSPYTSAPPLSHTPNADFQPPYFPPPYQPIYPQSQDPYSHVNDPYSLNPLHAQPQPQHPGWPGQRQSQESGLLHTHRGLPHQLSGLDPRRDYRRHEDLLHGPHALSSGLGDLSIHSLPHAIEEVPHVEDP
modifications: NT-647 reactive dye on primary amines (in the microscale thermophoresis only)
notes: transcription factor AP-2α, N-terminal region, residues 1-165; natively unfolded by CD; also called N-terminal region of AP-2α; source: recombinant, cells lysed in 8 M urea, purified (Ni-NTA, HPLC), lyophilized

Key:
Settings in all cases: both partners purified
[1] = target: B2; assay: ITC; ITC200, 22 °C; KCTD1 or mutants (72 µM expressed as pentamer) titrated into AP-2α^NTD (7 µM); single-binding site model
[2] = target: B1; assay: as above
[3] = target: B1; assay: ELISA; 3 µM AP-2α^NTD coated; KCTD1 or single point mutants from 1.8 nM to 1.8 µM; detected with anti-KCTD1 antibody; apparent binding constant

Row | dH [1] [kcal/mol] | stoichiometry N [1] | Kd [2] [nM] | Kd [3] [nM] | Binder
1 | -20.2 ± 0.1 | ~1 |  |  | B1
2 |  |  | 850 ± 115 | 593 ± 69 | B2

— PMC6642198, “Molecular basis of the scalp-ear-nipple syndrome unraveled by the characterization of disease-causing KCTD1 mutants” (Scientific Reports, 2019)
